Reference: patent publication US9445606B2, “Use of 4-hydroxydihydrochalcones and their salts for enhancing an impression of sweetness” (SYMRISE AG, priority 2006, dated 2016)

Experiments:
[1] = Enhancing the impression of sweetness of a solution containing a sweet-tasting substance (expert panel rating), sucrose; assay type: in vivo; conditions: 100 ppm substance, 5%; for % enhancement of the impression of sweetness: (b) with against (a) without; for Impression of sweetness (1-10) b) with: mean ± standard deviation
Protocol: In order to quantify the enhancement of an impression of sweetness by adding 4-hydroxydihydrochalcones to be used according to the invention, the sweetness of a solution containing a sweet-tasting substance and of samples containing the same amount of sweet-tasting substance and in addition a certain concentration of the 4-hydroxydihydrochalcones of the formula (I) to be used according to the invention was determined by a group of experts (classification 0 [extremely weaklysweet] to 10 [extremely sweet]). Evaluation was performed by calculating the enhancement (in %) of the impression of sweetness from the average values of the ratings for the solution containing the sweet-tasting substance (a) and for the solution containing the sweet-tasting substance and 4-dydroxydihydrochalcones (b).

[2] = Impression of sweetness of a sugar-reduced test solution (5% sucrose + compound against 6% sucrose); assay type: in vivo
Excerpt: In order to quantify the retention of an impression of sweetness when replacing a proportion of sucrose with a small amount of 4-hydroxydihydrochalcones of the formula (I) being used in accordance with the invention, the sweetness (a) of a solution containing 6 wt. % of sucrose as compared with a solution containing 5 wt. % of sucrose and (b) or (c) of a solution containing 6 wt. % of sucrose as compared with a solution containing 5% of sucrose and a certain concentration of a 4-hydroxydihydrochalcone being used according to the invention was determined by a group of experts (classification 0 [not sweet] to 10 [extremely sweet]). Evaluation was performed by calculating the enhancement (in %) of the impression of sweetness from the average values of the estimates for the solutions of 6% sucrose (second column) and for the solutions containing 5% sucrose and optionally the 4-hydroxydihydrochalcone of the formula (I) being used according to the invention (third column).

SMILES	total number of tasters / number of tasters who felt that test solution (b) was sweeter than test solution (a) [1]	% enhancement of the impression of sweetness [1]	Impression of sweetness (1-10) b) with [1]	total number of tasters / number of tasters who felt the 5 wt. % sucrose test solution with substance sweeter than 6 wt. % sucrose ([2]; 5% sucrose + 100 ppm substance)	% enhancement of the impression of sweetness ([2]; 5% sucrose + 100 ppm substance against 6% sucrose) [%]	Impression of sweetness (1-10) ([2]; 5% sucrose + 100 ppm substance, mean ± standard deviation)
COc1cc(CCC(=O)c2c(O)cc(O)cc2O)ccc1O [compound 8, 3-(4-hydroxy-3-methoxyphenyl)-1-(2,4,6-trihydroxyphenyl)propan-1-one]	15/12	+23%	6.5 ± 1.4	15/4	−11	4.9 ± 1.3
COc1cc(CCC(=O)c2ccccc2O)ccc1O [compound 5, 3-(4-hydroxy-3-methoxyphenyl)-1-(2-hydroxyphenyl)propan-1-one]	16/13	+24%	6.2 ± 1.7			
